{"sequences": {"note": "Chains of the proteins cited; added tags and fusions are not shown.", "UniProt P33535, whole entry, looked up": "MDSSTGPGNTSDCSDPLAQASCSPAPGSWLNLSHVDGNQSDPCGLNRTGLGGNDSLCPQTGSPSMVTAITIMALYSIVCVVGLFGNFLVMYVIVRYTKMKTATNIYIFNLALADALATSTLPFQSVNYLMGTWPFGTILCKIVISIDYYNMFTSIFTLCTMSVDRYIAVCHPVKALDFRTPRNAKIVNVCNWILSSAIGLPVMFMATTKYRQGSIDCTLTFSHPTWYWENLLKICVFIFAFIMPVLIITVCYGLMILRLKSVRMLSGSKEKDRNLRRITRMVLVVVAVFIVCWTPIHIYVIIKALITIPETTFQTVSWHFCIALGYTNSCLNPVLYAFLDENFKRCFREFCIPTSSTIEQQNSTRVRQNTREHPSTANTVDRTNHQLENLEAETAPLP", "UniProt P32300, whole entry, looked up": "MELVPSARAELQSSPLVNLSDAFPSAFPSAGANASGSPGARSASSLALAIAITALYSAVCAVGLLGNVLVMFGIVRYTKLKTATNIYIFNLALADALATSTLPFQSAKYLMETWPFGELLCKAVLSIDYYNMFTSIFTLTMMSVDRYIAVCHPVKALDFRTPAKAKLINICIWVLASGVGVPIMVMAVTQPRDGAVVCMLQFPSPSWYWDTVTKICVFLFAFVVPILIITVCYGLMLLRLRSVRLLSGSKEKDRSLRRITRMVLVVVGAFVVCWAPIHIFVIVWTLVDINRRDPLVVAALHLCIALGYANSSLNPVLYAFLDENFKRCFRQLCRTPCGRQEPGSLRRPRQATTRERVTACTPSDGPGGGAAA"}, "source": "ChEMBL document CHEMBL1142277", "about": "“Toward a structure-based model of salvinorin A recognition of the kappa-opioid receptor” (J Med Chem, 2008)", "key": {"Mu-type opioid receptor": {"molecular_target": "Mu-type opioid receptor (Rattus norvegicus, UniProt P33535)", "assay": "Displacement of [3H]diprenorphine from rat mu opioid receptor expressed in HEK293 cells"}, "[1]": {"molecular_target": "Delta-type opioid receptor (Mus musculus, UniProt P32300)", "assay": "Displacement of [3H]diprenorphine from mouse delta opioid receptor expressed in HEK293 cells"}}, "data": [{"smiles": "COC(=O)[C@@H]1C[C@H](OC(C)=O)C(=O)[C@H]2[C@@]1(C)CC[C@H]1C(=O)O[C@H](c3ccoc3)C[C@]21C", "note": "[SALVINORIN A]", "values": [{"measurement": "Ki", "setting": "Mu-type opioid receptor", "result": "> 25", "unit": "µM"}, {"measurement": "Ki", "setting": "[1]", "result": "> 25", "unit": "µM"}]}]}
